Literature values as cited in patent publication US20260008048A1, “POLYSILOXANE-BASED DEVICES WITH REDUCED DRUG ABSORPTION CHARACTERISTICS” (THE JOHNS HOPKINS UNIVERSITY, priority 2022, published 2026).

Conditions: cited from earlier work

Quinidine
logP: 2.9
